According to patent US20160016998A1, “HIGH-AFFINITY MATRIPTASE INHIBITORS” (MERCK PATENT GMBH, priority 2013, published 2016):

Biological target: T1, matriptase (Homo sapiens, UniProt Q9Y5Y6)
T1 construct: made in house
T1 sequence (Q9Y5Y6 615-855 limits assumed): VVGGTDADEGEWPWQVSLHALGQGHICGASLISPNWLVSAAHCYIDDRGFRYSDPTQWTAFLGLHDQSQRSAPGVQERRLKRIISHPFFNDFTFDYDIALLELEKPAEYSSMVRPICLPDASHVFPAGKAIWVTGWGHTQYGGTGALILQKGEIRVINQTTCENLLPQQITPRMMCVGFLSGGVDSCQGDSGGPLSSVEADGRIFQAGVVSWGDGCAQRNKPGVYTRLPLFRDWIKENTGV
Experiment: Matriptase enzyme inhibition assay with chromogenic substrate Boc-QAR-pNA
Type: biochemical
Settings: for ΔBG(x) − ΔBG(SFTI-1[1, 14]): difference in free energy of binding/dissociation, ΔBG = −RTlnKi; for ΔBG(x) − ΔBG(SFTI-1[1, 14]) / Relative Activity: pH 7.6 (Table 1); for matriptase affinity / inhibitor potency in words: enzyme inhibition assays, comparator as worded; for Relative Activity: ratio Ki of compound / Ki of SFTI-1[1,14]
Method: Recombinant production, autocatalytic activation and purification of matriptase were conducted as previously described. Bovine trypsin was purchased from Sigma-Aldrich. Active-site titration and determination of Michaelis-Menten constants KM for the chromogenic substrate Boc-QAR-pNA was performed as reported earlier.
All experiments were performed in triplicate. […] Slopes of the initial reaction velocities (steady-state) were calculated and normalized to the data of the uninhibited enzymatic hydrolysis of Boc-QAR-pNA. The determined v/v0 values were plotted against the concentration of the inhibitor.
Errors were calculated through propagation of errors (compare Tischler et al.).[17]

Q: How did the Ki turn out when CC[C@H](C)[C@@H]1NC(=O)[C@H](CO)NC(=O)[C@H](CCCCN)NC(=O)[C@H]([C@@H](C)O)NC(=O)[C@@H](NC(=O)[C@H](CCCNC(=N)N)NC(=O)CN)CSSC[C@@H](C(=O)N[C@@H](Cc2ccccc2)C(=O)N2CCC[C@H]2C(=O)N[C@@H](CC(=O)O)C(=O)O)NC(=O)[C@H](Cn2cc(CN)nn2)NC(=O)[C@@H]2CCCN2C(=O)[C@@H]2CCCN2C1=O [Compound 9] was run?
A: 0.148 ± 0.019 µM

Q: Which Ki does the source give for CC[C@H](C)[C@@H]1NC(=O)[C@H](CO)NC(=O)[C@H](CCCCN)NC(=O)[C@H]([C@@H](C)O)NC(=O)[C@@H](NC(=O)[C@H](CCCNC(=N)N)NC(=O)CN)CSSC[C@@H](C(=O)N[C@@H](Cc2ccccc2)C(=O)N2CCC[C@H]2C(=O)N[C@@H](CC(=O)O)C(=O)O)NC(=O)[C@H](CCn2cc(C(=O)O)nn2)NC(=O)[C@@H]2CCCN2C(=O)[C@@H]2CCCN2C1=O [Compound 12] here?
A: 8.1 ± 1.01 µM

Q: What does the source list for CC[C@H](C)[C@@H]1NC(=O)[C@H](CO)NC(=O)[C@H](CCCCN)NC(=O)[C@H]([C@@H](C)O)NC(=O)[C@@H](NC(=O)[C@H](CCCNC(=N)N)NC(=O)CN)CSSC[C@@H](C(=O)N[C@@H](Cc2ccccc2)C(=O)N2CCC[C@H]2C(=O)N[C@@H](CC(=O)O)C(=O)O)NC(=O)[C@H](CCCCN)NC(=O)[C@@H]2CCCN2C(=O)[C@@H]2CCCN2C1=O [Compound 17]?
A: Ki: 0.232 ± 0.029 µM; ΔBG(x) − ΔBG(SFTI-1[1, 14]) (matriptase): 0.645 ± 0.096 kcal/mol; matriptase affinity / inhibitor potency in words (pH 7.6): slightly less potent than inhibitor 9; Relative Activity (matriptase): 0.33

Q: Which Ki does the source give for CC[C@H](C)[C@@H]1NC(=O)[C@H](CO)NC(=O)[C@H](CCCCN)NC(=O)[C@H]([C@@H](C)O)NC(=O)[C@@H](NC(=O)[C@H](CCCNC(=N)N)NC(=O)CN)CSSC[C@@H](C(=O)N[C@@H](Cc2ccccc2)C(=O)N2CCC[C@H]2C(=O)N[C@@H](CC(=O)O)C(=O)O)NC(=O)[C@H](Cn2cc(C(=O)OC)nn2)NC(=O)[C@@H]2CCCN2C(=O)[C@@H]2CCCN2C1=O [Compound 13] here?
A: 0.208 ± 0.027 µM

Q: For CC[C@H](C)[C@@H]1NC(=O)[C@H](CO)NC(=O)[C@H](CCCCN)NC(=O)[C@H]([C@@H](C)O)NC(=O)[C@@H](NC(=O)[C@H](CCCNC(=N)N)NC(=O)CN)CSSC[C@@H](C(=O)N[C@@H](Cc2ccccc2)C(=O)N2CCC[C@H]2C(=O)N[C@@H](CC(=O)O)C(=O)O)NC(=O)[C@H](CCn2cc(C(=O)OC)nn2)NC(=O)[C@@H]2CCCN2C(=O)[C@@H]2CCCN2C1=O [Compound 14], which Ki is on record?
A: 2.22 ± 0.277 µM

Q: Which Ki does the source give for CC[C@H](C)[C@@H]1NC(=O)[C@H](CO)NC(=O)[C@H](CCCCN)NC(=O)[C@H]([C@@H](C)O)NC(=O)[C@@H](NC(=O)[C@H](CCCNC(=N)N)NC(=O)CN)CSSC[C@@H](C(=O)N[C@@H](Cc2ccccc2)C(=O)N2CCC[C@H]2C(=O)N[C@@H](CC(=O)O)C(=O)O)NC(=O)[C@H](CCn2cc(CN)nn2)NC(=O)[C@@H]2CCCN2C(=O)[C@@H]2CCCN2C1=O [Compound 10] here?
A: 0.513 ± 0.066 µM

Q: CC[C@H](C)[C@@H]1NC(=O)[C@@H]2CCCN2C(=O)[C@@H]2CCCN2C(=O)[C@H](CCn2cc(C(=O)OC)nn2)NC(=O)[C@H](CO)NC(=O)[C@H](CCCCN)NC(=O)[C@H]([C@@H](C)O)NC(=O)[C@@H](NC(=O)[C@H](CCCNC(=N)N)NC(=O)CN)CSSC[C@@H](C(=O)N[C@@H](Cc2ccccc2)C(=O)N2CCC[C@H]2C(=O)N[C@@H](CC(=O)O)C(=O)O)NC1=O [Compound 6] was tested. Which Ki did it give?
A: 10.9 ± 1.35 µM

Q: How did the Ki turn out when CC[C@H](C)[C@@H]1NC(=O)[C@@H]2CCCN2C(=O)[C@@H]2CCCN2C(=O)[C@H]([C@@H](C)CC)NC(=O)[C@H](CO)NC(=O)[C@H](CCCCN)NC(=O)[C@H]([C@@H](C)O)NC(=O)[C@@H](NC(=O)[C@H](CCCNC(=N)N)NC(=O)CN)CSSC[C@@H](C(=O)N[C@@H](C)C(=O)N2CCC[C@H]2C(=O)N[C@@H](CC(=O)O)C(=O)O)NC1=O [Compound 19] was run?
A: 1.61 ± 0.206 µM

Q: What about the “ΔBG(x) − ΔBG(SFTI-1[1, 14])” value (matriptase) of the same compound?
A: -0.502 ± 0.096 kcal/mol

Q: What about the “Relative Activity” value (matriptase) of the same compound?
A: 2.3

Q: Which Ki does the source give for CC[C@H](C)[C@@H]1NC(=O)[C@H](CO)NC(=O)[C@H](CCCCN)NC(=O)[C@H]([C@@H](C)O)NC(=O)[C@@H](NC(=O)[C@H](CCCNC(=N)N)NC(=O)CN)CSSC[C@@H](C(=O)N[C@@H](Cc2ccccc2)C(=O)N2CCC[C@H]2C(=O)N[C@@H](CC(=O)O)C(=O)O)NC(=O)[C@H](CCCNC(=N)N)NC(=O)[C@@H]2CCCN2C(=O)[C@@H]2CCCN2C1=O [Compound 18] here?
A: 0.0506 ± 0.0065 µM

Q: How did the Ki turn out when CC[C@H](C)[C@@H]1NC(=O)[C@@H]2CCCN2C(=O)[C@@H]2CCCN2C(=O)[C@H](CCn2cc(-c3ccccc3)nn2)NC(=O)[C@H](CO)NC(=O)[C@H](CCCCN)NC(=O)[C@H]([C@@H](C)O)NC(=O)[C@@H](NC(=O)[C@H](CCCNC(=N)N)NC(=O)CN)CSSC[C@@H](C(=O)N[C@@H](Cc2ccccc2)C(=O)N2CCC[C@H]2C(=O)N[C@@H](CC(=O)O)C(=O)O)NC1=O [Compound 8] was run?
A: 1.25 ± 0.155 µM

Q: CC[C@H](C)[C@@H]1NC(=O)[C@@H]2CCCN2C(=O)[C@@H]2CCCN2C(=O)[C@H]([C@@H](C)CC)NC(=O)[C@H](CO)NC(=O)[C@H](CCCCN)NC(=O)[C@H]([C@@H](C)O)NC(=O)[C@@H](NC(=O)[C@H](CCCNC(=N)N)NC(=O)CN)CSSC[C@@H](C(=O)N[C@@H](Cc2c[nH]cn2)C(=O)N2CCC[C@H]2C(=O)N[C@@H](CC(=O)O)C(=O)O)NC1=O [Compound 22] was tested. Which Ki did it give?
A: 0.206 ± 0.027 µM

Q: And the “ΔBG(x) − ΔBG(SFTI-1[1, 14])” value (matriptase)?
A: 0.717 ± 0.12 kcal/mol

Q: What about the “matriptase affinity / inhibitor potency in words” value (pH 7.6) of the same compound?
A: beneficial effect

Q: And the “difference of the free energies of binding/dissociation ΔBG between compound and SFTI-1[1,14]” value (matriptase, pH 7.6)?
A: about 3 kJ/mol

Q: And the “Relative Activity” value (matriptase)?
A: 0.29

Q: With CC[C@H](C)[C@@H]1NC(=O)[C@@H]2CCCN2C(=O)[C@@H]2CCCN2C(=O)[C@H](Cn2cc(CN)nn2)NC(=O)[C@H](CO)NC(=O)[C@H](CCCCN)NC(=O)[C@H]([C@@H](C)O)NC(=O)[C@@H](NC(=O)[C@H](CCCNC(=N)N)NC(=O)CN)CSSC[C@@H](C(=O)N[C@@H](Cc2ccccc2)C(=O)N2CCC[C@H]2C(=O)N[C@@H](CC(=O)O)C(=O)O)NC1=O [Compound 1] as the compound, how does the Ki read?
A: 4.89 ± 0.663 µM

Q: Which Ki does the source give for CC[C@H](C)[C@@H]1NC(=O)[C@@H]2CCCN2C(=O)[C@@H]2CCCN2C(=O)[C@H](Cn2cc(C(=O)O)nn2)NC(=O)[C@H](CO)NC(=O)[C@H](CCCCN)NC(=O)[C@H]([C@@H](C)O)NC(=O)[C@@H](NC(=O)[C@H](CCCNC(=N)N)NC(=O)CN)CSSC[C@@H](C(=O)N[C@@H](Cc2ccccc2)C(=O)N2CCC[C@H]2C(=O)N[C@@H](CC(=O)O)C(=O)O)NC1=O [Compound 3] here?
A: 13.9 ± 1.71 µM

Q: Which Ki does the source give for CC[C@H](C)[C@@H]1NC(=O)[C@H](CO)NC(=O)[C@H](CCCCN)NC(=O)[C@H]([C@@H](C)O)NC(=O)[C@@H](NC(=O)[C@H](CCCNC(=N)N)NC(=O)CN)CSSC[C@@H](C(=O)N[C@@H](Cc2ccccc2)C(=O)N2CCC[C@H]2C(=O)N[C@@H](CC(=O)O)C(=O)O)NC(=O)[C@H](Cn2cc(-c3ccccc3)nn2)NC(=O)[C@@H]2CCCN2C(=O)[C@@H]2CCCN2C1=O [Compound 15] here?
A: 0.556 ± 0.07 µM

Q: For CC[C@H](C)[C@@H]1NC(=O)[C@H](CO)NC(=O)[C@H](CCCCN)NC(=O)[C@H]([C@@H](C)O)NC(=O)[C@@H](NC(=O)[C@H](CCCNC(=N)N)NC(=O)CN)CSSC[C@@H](C(=O)N[C@@H](Cc2ccccc2)C(=O)N2CCC[C@H]2C(=O)N[C@@H](CC(=O)O)C(=O)O)NC(=O)[C@H](CCn2cc(-c3ccccc3)nn2)NC(=O)[C@@H]2CCCN2C(=O)[C@@H]2CCCN2C1=O [Compound 16], which Ki is on record?
A: 4.75 ± 0.585 µM

Q: Which Ki does the source give for CC[C@H](C)[C@@H]1NC(=O)[C@H](CO)NC(=O)[C@H](CCCCN)NC(=O)[C@H]([C@@H](C)O)NC(=O)[C@@H](NC(=O)[C@H](CCCNC(=N)N)NC(=O)CN)CSSC[C@@H](C(=O)N[C@@H](Cc2ccccc2)C(=O)N2CCC[C@H]2C(=O)N[C@@H](CC(=O)O)C(=O)O)NC(=O)[C@H](Cn2cc(C(=O)O)nn2)NC(=O)[C@@H]2CCCN2C(=O)[C@@H]2CCCN2C1=O [Compound 11] here?
A: 46.3 ± 5.73 µM

Q: With CC[C@H](C)[C@@H]1NC(=O)[C@@H]2CCCN2C(=O)[C@@H]2CCCN2C(=O)[C@H](Cn2cc(-c3ccccc3)nn2)NC(=O)[C@H](CO)NC(=O)[C@H](CCCCN)NC(=O)[C@H]([C@@H](C)O)NC(=O)[C@@H](NC(=O)[C@H](CCCNC(=N)N)NC(=O)CN)CSSC[C@@H](C(=O)N[C@@H](Cc2ccccc2)C(=O)N2CCC[C@H]2C(=O)N[C@@H](CC(=O)O)C(=O)O)NC1=O [Compound 7] as the compound, how does the Ki read?
A: 3.34 ± 0.414 µM

Q: With CC[C@H](C)[C@@H]1NC(=O)[C@@H]2CCCN2C(=O)[C@@H]2CCCN2C(=O)[C@H](CCn2cc(C(=O)O)nn2)NC(=O)[C@H](CO)NC(=O)[C@H](CCCCN)NC(=O)[C@H]([C@@H](C)O)NC(=O)[C@@H](NC(=O)[C@H](CCCNC(=N)N)NC(=O)CN)CSSC[C@@H](C(=O)N[C@@H](Cc2ccccc2)C(=O)N2CCC[C@H]2C(=O)N[C@@H](CC(=O)O)C(=O)O)NC1=O [Compound 4] as the compound, how does the Ki read?
A: 2.38 ± 0.291 µM

Q: For CC[C@H](C)[C@@H]1NC(=O)[C@@H]2CCCN2C(=O)[C@@H]2CCCN2C(=O)[C@H](Cn2cc(C(=O)OC)nn2)NC(=O)[C@H](CO)NC(=O)[C@H](CCCCN)NC(=O)[C@H]([C@@H](C)O)NC(=O)[C@@H](NC(=O)[C@H](CCCNC(=N)N)NC(=O)CN)CSSC[C@@H](C(=O)N[C@@H](Cc2ccccc2)C(=O)N2CCC[C@H]2C(=O)N[C@@H](CC(=O)O)C(=O)O)NC1=O [Compound 5], which Ki is on record?
A: 1.63 ± 0.2 µM

Q: Which Ki does the source give for CC[C@H](C)[C@@H]1NC(=O)[C@@H]2CCCN2C(=O)[C@@H]2CCCN2C(=O)[C@H](CCn2cc(CN)nn2)NC(=O)[C@H](CO)NC(=O)[C@H](CCCCN)NC(=O)[C@H]([C@@H](C)O)NC(=O)[C@@H](NC(=O)[C@H](CCCNC(=N)N)NC(=O)CN)CSSC[C@@H](C(=O)N[C@@H](Cc2ccccc2)C(=O)N2CCC[C@H]2C(=O)N[C@@H](CC(=O)O)C(=O)O)NC1=O [Compound 2] here?
A: 3.82 ± 0.494 µM
